Measurements published in patent US9249076B2, “Recyclable extractant compositions” (BUTAMAX ADVANCED BIOFUELS LLC, priority 2012, dated 2016).

Assay: Oil Stability Index (OSI), antioxidant activity in COFA, AOCS Cd 12b-92
Conditions: 110° C.; Crude COFA; dose 0.0020 Wt %

## CCCCCCCCCCCCCCCC(=O)OC[C@H](O)[C@H]1OC(=O)C(O)=C1O [L-ascorbic acid 6-palmitate]
  OSI: 5.45 h
